Measurements as given in publication PMC7424261.

Tests used:
purified protein [1] = substrate: NC(=O)c1ccc[n+]([C@@H]2O[C@H](COP(=O)(O)OP(=O)(O)OC[C@H]3O[C@@H](n4cnc5c(N)ncnc54)[C@H](OP(=O)(O)O)[C@@H]3O)[C@@H](O)[C@H]2O)c1; test: purified protein; details: oxidative deamination, 10 mM meso-DAP, 200 mM glycine-KOH pH 10.5, NADP+ 0.015-1.25 mM, varied: cofactor
purified protein [2] = substrate: N[C@H](CCC[C@H](N)C(=O)O)C(=O)O; test: purified protein; details: oxidative deamination, 1.25 mM NADP+ (standard assay), 200 mM glycine-KOH pH 10.5, meso-DAP 0.5-15 mM

B1: NmDAPDH (meso-diaminopimelate dehydrogenase from Numidum massiliense) (Numidum massiliense) (protein)
chain: MSNVYNVAVVGYGNIGKYAVQAIDAAPDMQLAGVVRRASSAAKDTPPELVGRRVVHDIRDLEQVDVAILAAPTRTIPAYARDVLSLGIHTVDSYDIHGELANLRRELDDVSKKNDSVAIISAGWDPGTDSMIRGMLEFMAPGGLTYTNFGPGMSMGHSVAVKAIDGVKDALSLTIPLGTSIHRRMVYVELEAGADFETVKKAILADPYFVNDETHVTQVPNVQQLVNVGHGVSMERRGVSGATHNQLFTFEMRINNPALTSQVLVAAARATFKQQPGAYTMIEVPVIDYLPGDRDDIIRRLV
B1 was tested, and the Km (purified protein [1]) was 302 µM, the kcat (purified protein [1]) was 792 s⁻¹ and the kcat/Km (purified protein [1]) was 2.62e+06 M⁻¹ s⁻¹. For the same protein, the Km (purified protein [2]) was 3340 µM, the kcat (purified protein [2]) was 638 s⁻¹ and the kcat/Km (purified protein [2]) was 192000 M⁻¹ s⁻¹.
